Reference: PubChem BioAssay AID463104 (Sanford-Burnham Center for Chemical Genomics, 2010)
This is a selection; strong and weak results do not stand in their true shares. Activity calls are given as the source filed them.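 The calls were made as follows: active = versus positive control, 20 µM dose yields 30% or more activation; inactive = the rest.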

assay: IRE1-XBP1 pathway stimulators – cell-based, CHO-XBP1 luciferase reporter, luminescence, uHTS, primary screen (AID 463104); settings: IRE1-XBP1 UPR activation, at 20 µM, stronger effect = higher value, percent of tunicamycin response, DMSO as zero;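 also: 100% = tunicamycin at 10 µg/mL and 0% = DMSO only wells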
Method in brief: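 Material: CHO cell line with stable XBP1 luciferase reporter; schedule: 16-18 h cell attachment at 37 °C, then 6 h compound exposure; signal: glow luminescence from Steady-Glo reagent; medium: serum-containing F12 medium, 10% FBS; benchmarks: tunicamycin 10 µg/mL and vehicle-only wells; read-out: percent activation relative to tunicamycin reference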

Q: For `CCC(=O)N(c1ccccc1)C1(COC)CCN(CCn2nnn(CC)c2=O)CC1`, which activation is on record?
A: inactive: -0.64%

Q: For `CCC(=O)N(c1ccccc1)C1(COC)CCN(CCc2cccs2)CC1`, which activation is on record?
A: inactive: 0.06%
